Earlier results, collected in article PMC5807063 (Science (New York, N.Y.), 2017).

Molecular target: T1, purified HNE (human neutrophil elastase) (Homo sapiens, UniProt P08246)
T1 sequence (P08246 30-267): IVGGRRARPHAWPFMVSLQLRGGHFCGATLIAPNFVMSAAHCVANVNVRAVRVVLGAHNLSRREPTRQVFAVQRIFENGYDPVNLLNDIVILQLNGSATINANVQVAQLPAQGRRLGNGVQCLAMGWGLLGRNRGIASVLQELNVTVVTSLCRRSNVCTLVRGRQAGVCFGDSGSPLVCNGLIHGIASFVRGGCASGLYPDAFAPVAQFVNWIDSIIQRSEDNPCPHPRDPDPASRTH
Conditions: read-out: reported Ki; cited from earlier work

BAY 85-8501 [compound 54]
Ki: 0.08 nM
